Details in all cases: actives raise or lower the signal; primary human HUVEC with PBMC
Read-out in experiment [1]: Monocyte Chemoattractant Protein-1 (MCP1), CCL2 (gene 6347)
Description: BSK_LPS_MCP1: BioMAP Diversity Plus: LPS Assay for Monocyte Chemoattractant Protein-1 (MCP1) Biomarker Activity (AID 2283081). Summed up:
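ELISA read-out of MCP-1 after 24 h chemical dosing of a human umbilical vein endothelial cell/peripheral blood mononuclear cell co-culture stimulated with LPS. Gain or loss of signal fitted relative to DMSO controls.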

Protein sequences, listed by entry. Tags and fused reporters are not part of them.
UniProt P01375, whole entry: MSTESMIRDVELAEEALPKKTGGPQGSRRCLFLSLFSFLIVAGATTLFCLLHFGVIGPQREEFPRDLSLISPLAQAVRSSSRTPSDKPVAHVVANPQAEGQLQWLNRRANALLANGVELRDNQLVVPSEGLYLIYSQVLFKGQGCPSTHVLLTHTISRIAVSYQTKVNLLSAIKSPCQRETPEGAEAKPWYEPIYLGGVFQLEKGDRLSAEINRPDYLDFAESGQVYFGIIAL

Experiment [2] in a line: BSK_LPS_PGE2: BioMAP Diversity Plus: LPS Assay for Prostaglandin E2 (PGE2) Biomarker Activity (AID 2283082).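 On AC50: secreted prostaglandin E2 measured by ELISA in LPS-stimulated co-culture.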 The essentials:
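Endpoint derived from bidirectional curve fitting versus DMSO of ELISA-measured PGE2 in LPS-stimulated human primary vascular co-culture (HUVEC with PBMC) harvested at 24 h.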

Read-out in experiment [3]: Macrophage colony-stimulating factor (MCSF), CSF1 (gene 1435)
The experiment is described as follows: BSK_LPS_MCSF: BioMAP Diversity Plus: LPS Assay for Macrophage colony-stimulating factor (MCSF) Biomarker Activity (AID 2283083). Summed up: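 HUVEC + PBMC co-culture (human primary), 24 h post-dose; M-CSF by ELISA; gain/loss of signal fitted bidirectionally vs DMSO baseline.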

Read-out in experiment [4]: Tissue Factor, F3 (gene 2152)
The experiment is described as follows: BSK_LPS_TissueFactor: BioMAP Diversity Plus: LPS Assay for Tissue Factor Biomarker Activity (AID 2283084). The method, then:
(§1) BSK_LPS is a cell-based, multiplexed-readout assay that uses umbilical vein endothelium and peripheral blood mononuclear cells, a human vascular primary cell co-culture, with measurements taken at 24 hours after chemical dosing in a 96-well plate.BSK_LPS_TissueFactor is an assay component measured in the BSK_LPS assay. It measures CD142 Tissue Factor antibody related to regulation of gene expression using ELISA technology.Data from the assay component BSK_LPS_TissueFactor was analyzed into 1 assay endpoint. This assay endpoint, BSK_LPS_TissueFactor, was analyzed with bidirectional fitting relative to DMSO as the negative control and baseline of activity. […] Furthermore, this assay endpoint can be referred to as a primary readout, because this assay has produced multiple assay endpoints where this one serves a signaling function. […]
The levels of cell surface (or secreted, indicated by the prefix "s") biomarker endpoints were measured by ELISA. Overt cytotoxicity to cells in confluent adherent cultures (all systems other than the BT system) was assessed by measuring total protein levels using sulforhodamine B (SRB) staining in parallel cultures at the time of biomarker measurements, indicated as SRB endpoints. […] Then, Alamar Blue (20 uL/well) (Invitrogen, Cat DAL1100) was added for 6 h, and the plates were read with a fluorescence microplate reader at 546/580 nm (excitation/emission). […]

Read-out in experiment [5]: Tumor necrosis factor (Homo sapiens) (UniProt P01375)
Description: BSK_LPS_TNFa: BioMAP Diversity Plus: LPS Assay for Tumour Necrosis Factor alpha (TNFa) Biomarker Activity (AID 2283085). The method, then:
as §1, with “plate.BSK_LPS_TNFa” for “plate.BSK_LPS_TissueFactor”, “TNF-a” for “CD142 Tissue Factor”, “BSK_LPS_TNFa” for “BSK_LPS_TissueFactor”, “BSK_LPS_TNFa,” for “BSK_LPS_TissueFactor,”
The levels of cell surface (or secreted, indicated by the prefix "s") biomarker endpoints were measured by ELISA. Overt cytotoxicity to cells in confluent adherent cultures (all systems other than the BT system) was assessed by measuring total protein levels using sulforhodamine B (SRB) staining in parallel cultures at the time of biomarker measurements, indicated as SRB endpoints. […] SRB was performed by staining cells with 0.1% SRB after fixation with 10% TCA and reading wells at 560 nm.Viability and proliferation of PBMC (T cells) was quantified by Alamar Blue reduction for the SAg and BT systems. […]

Read-out in experiment [6]: Vascular cell adhesion molecule 1 (VCAM1), VCAM1 (gene 7412)
Description: BSK_LPS_VCAM1: BioMAP Diversity Plus: LPS Assay for Vascular cell adhesion molecule 1 (VCAM1) Biomarker Activity (AID 2283086). The method, then:
as §1, with “plate.BSK_LPS_VCAM1” for “plate.BSK_LPS_TissueFactor”, “VCAM-1” for “CD142 Tissue Factor”, “BSK_LPS_VCAM1” for “BSK_LPS_TissueFactor”, “BSK_LPS_VCAM1,” for “BSK_LPS_TissueFactor,”
The levels of cell surface (or secreted, indicated by the prefix "s") biomarker endpoints were measured by ELISA. Overt cytotoxicity to cells in confluent adherent cultures (all systems other than the BT system) was assessed by measuring total protein levels using sulforhodamine B (SRB) staining in parallel cultures at the time of biomarker measurements, indicated as SRB endpoints. […] Then, Alamar Blue (20 uL/well) (Invitrogen, Cat DAL1100) was added for 6 h, and the plates were read with a fluorescence microplate reader at 546/580 nm (excitation/emission). […] Plates were read after 6 h.

Read-out in another experiment: CD38, CD38 (gene 952)
The experiment is described as follows: BSK_SAg_CD38: BioMAP Diversity Plus: SAg Assay for CD38 Biomarker Activity (AID 2283087). As for the experimental part: BSK_SAg is a cell-based, multiplexed-readout assay that uses umbilical vein endothelium and peripheral blood mononuclear cells, a human vascular primary cell co-culture, with measurements taken at 24 hours after chemical dosing in a 96-well plate.BSK_SAg_CD38 is one of 10 assay component(s) measured or calculated from the BSK_SAg assay. It is designed to make measurements of enzyme-linked immunosorbent assay, a form of binding reporter, as detected with fluorescence intensity signals by Enzyme-linked immunosorbent assay technology.Data from the assay component BSK_SAg_CD38 was analyzed into 1 assay endpoint. This assay endpoint, BSK_SAg_CD38, was analyzed with bidirectional fitting relative to DMSO as the negative control and baseline of activity. […] Furthermore, this assay endpoint can be referred to as a primary readout, because this assay has produced multiple assay endpoints where this one serves a signaling function. […]
The levels of cell surface (or secreted, indicated by the prefix "s") biomarker endpoints were measured by ELISA. Overt cytotoxicity to cells in confluent adherent cultures (all systems other than the BT system) was assessed by measuring total protein levels using sulforhodamine B (SRB) staining in parallel cultures at the time of biomarker measurements, indicated as SRB endpoints. […] Plates were read after 6 h.

Read-out in another experiment: CD40, CD40 (gene 958)
The experiment is described as follows: BSK_SAg_CD40: BioMAP Diversity Plus: SAg Assay for CD40 Biomarker Activity (AID 2283088). Summed up: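 HUVEC/PBMC co-culture, 24 h post-dose; CD40 by ELISA, fluorescence intensity; bidirectional fit vs DMSO negative control.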

Read-out in a further experiment: CD69, CD69 (gene 969)
The experiment is described as follows: BSK_SAg_CD69: BioMAP Diversity Plus: SAg Assay for CD69 Biomarker Activity (AID 2283089).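 On AC50: cell surface CD69 protein quantified by ELISA with fluorescence detection.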 The essentials:
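Endothelial/PBMC co-culture; chemical added; 24 h incubation; CD69 ELISA with fluorescence detection; bidirectional fit vs DMSO.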

Read-out in experiment [7]: Monocyte Chemoattractant Protein-1 (MCP1), CCL2 (gene 6347)
The experiment is described as follows: BSK_SAg_MCP1: BioMAP Diversity Plus: SAg Assay for Monocyte Chemoattractant Protein-1 (MCP1) Biomarker Activity (AID 2283090). The essentials:
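MCP-1 levels in the endothelial–PBMC SAg co-culture were quantified by ELISA at 24 h post-dosing; both increases and decreases versus DMSO scored. Cytotoxicity monitored by SRB total protein in parallel cultures.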

The term AC50 denotes the concentration giving half of the maximal activity seen.

The list shows a part of the results, in another mix than the full data. The source made the active and inactive calls. How the source made its calls: active means hit-call score of the fitted dose curve at least 0.9, where 1 is the maximum; inactive means score below 0.9.

`CC(C)OP(OC(C)C)OC(C)C`: the outcome in experiment [1], in experiment [2], in experiment [3], in [4], in experiment [5] and in experiment [6] was inactive. The outcome with CD38, CD38 (gene 952) was “inactive”; in the experiment with CD40, CD40 (gene 958), “inactive”; in the experiment with CD69, CD69 (gene 969) it was “inactive”; in experiment [7], “inactive”.

On to `O=[N+]([O-])c1ccccc1[N+](=O)[O-]`, for which the outcome is “inactive” in experiment [1]; “inactive” in experiment [3]; “inactive” with CD38, CD38 (gene 952); “inactive” in the experiment with CD40, CD40 (gene 958); “inactive” in experiment [7]. Also, the concentration at half-maximal activity (AC50) in [2] was active: 2.47 µM; in experiment [4], active: 7.11 µM; in experiment [5], active: 0.272 µM; in experiment [6], active: 15.8 µM; in the experiment with CD69, CD69 (gene 969) it was active: 20 µM.

(Values after PubChem BioAssay (EPA / NIEHS).)
